{"source": "PubChem BioAssay AID1362", "about": "(SRMLSC, 2008)", "note": "The entries are a selection whose mix differs from that of the whole data set. The source made the active and inactive calls. Rule as the data show it: active = inhibition above about 58%; inactive = the rest, inconclusive results apart; tested in S. cerevisiae."}
{"experiment": "growth inhibition of WT strain, primary screen, mitochondrial fusion inhibitor project, WT and mutant strains, chemical genetic (AID 1362)", "conditions": "mitochondrial fusion phenotypic screen, at 10 µM, active compounds read high"}
{"smiles": "CCOC(=O)c1ccc(NP(C)(=O)Oc2cc(C)cc(C)c2)cc1", "note": "(stereo unspecified)", "inhibition": "inactive: 3.08%"}
{"smiles": "Cc1cccc(OCC(=O)OC2CN3CCC2CC3)c1", "note": "(stereo unspecified)", "inhibition": "inactive: -1.76%"}
{"smiles": "Cc1cc(C)cc(OP(C)(=O)Nc2ccc(C)cc2C)c1", "note": "(stereo unspecified)", "inhibition": "inactive: 2.66%"}
{"smiles": "O=[N+]([O-])c1ccc2c(c1)nnn2O", "inhibition": "inactive: -12.4%"}
{"smiles": "CC1=NCCc2c1[nH]c1ccccc21.O=[N+]([O-])c1cc([N+](=O)[O-])c(O)c([N+](=O)[O-])c1", "inhibition": "inactive: 13.9%"}
{"smiles": "CCOP1(=S)c2c(C)nn(CCC#N)c2N=C(c2ccc(F)cc2)N1C", "note": "(stereo unspecified)", "inhibition": "inactive: -2.82%"}
{"smiles": "CCOP1(=S)c2c(C)nn(CCC#N)c2N=C(c2ccccc2F)N1C", "note": "(stereo unspecified)", "inhibition": "inactive: -7.65%"}
{"smiles": "O=P(Nc1nccs1)(Oc1ccccc1)Oc1ccccc1", "inhibition": "inactive: 4.32%"}
{"smiles": "O=P(Nc1nccs1)(c1ccccc1)c1nc2ccccc2s1", "note": "(stereo unspecified)", "inhibition": "inactive: -5.02%"}
{"smiles": "CN1CCCCC1COC(=O)C1(O)c2ccccc2CCc2ccccc21", "note": "(stereo unspecified)", "inhibition": "inactive: -0.85%"}
{"smiles": "COc1ccccc1OP(C)(=O)Nc1c(C)cccc1C", "note": "(stereo unspecified)", "inhibition": "inactive: 15.2%"}
{"smiles": "O=P1(Nc2ncccn2)COc2ccccc2OC1", "inhibition": "inactive: 9.12%"}
{"smiles": "Cc1ccc(OCC(=O)OC2CN3CCC2CC3)cc1", "note": "(stereo unspecified)", "inhibition": "inactive: 3.54%"}
{"smiles": "O=P1(Nc2ccc(Br)cn2)COc2ccccc2OC1", "inhibition": "inactive: -0.44%"}
{"smiles": "CCCOc1ccc(NP(C)(=O)Oc2ccc(Cl)cc2)cc1", "note": "(stereo unspecified)", "inhibition": "inactive: 3.82%"}
{"smiles": "CP(=O)(Nc1ccc(SC(F)(F)F)cc1)Oc1ccccc1", "note": "(stereo unspecified)", "inhibition": "inactive: 18%"}
{"smiles": "COc1cc(C2NCCC3(OCCO3)C2(C)C)cc(OC)c1OC.O=[N+]([O-])c1cc([N+](=O)[O-])c(O)c([N+](=O)[O-])c1", "note": "(stereo unspecified)", "inhibition": "inactive: 25.3%"}
{"smiles": "Cc1nn(-c2ccccc2)c2c1P(=O)(N1CCOCC1)N(C)C(c1ccccc1)=N2", "note": "(stereo unspecified)", "inhibition": "inactive: -10.8%"}
{"smiles": "CC1CCC(C(C)C)C(OP(=O)(Nc2ccccn2)c2ccccc2)C1", "note": "(stereo unspecified)", "inhibition": "inactive: 34.3%"}
{"smiles": "CN(C)C1(CNC(=O)c2ccc(S(C)(=O)=O)cc2)CCCCC1", "inhibition": "inactive: 9.68%"}
{"smiles": "Cc1nc2ccc3ccccc3c2s1.O=[N+]([O-])c1cc([N+](=O)[O-])c(O)c([N+](=O)[O-])c1", "inhibition": "inactive: 3.07%"}
{"smiles": "CN(C(=O)Cc1ccc(Cl)c(Cl)c1)[C@@H]1CCCC[C@H]1N1CCCC1", "inhibition": "inactive: 1.65%"}
{"smiles": "CC(C)/C=N\\N=C(\\N)N[N+](=O)[O-]", "inhibition": "inactive: 8.94%"}
{"smiles": "O=P1(Nc2ccccn2)COc2ccccc2OC1", "inhibition": "inactive: -11.5%"}
{"smiles": "O=[N+]([O-])c1cc([N+](=O)[O-])c(-n2nnc3ccccc32)c([N+](=O)[O-])c1", "inhibition": "inactive: -15.2%"}
{"smiles": "Clc1n[nH]nc1-c1nn[nH][15n]1", "inhibition": "inactive: -9.53%"}
{"smiles": "CCOC(=O)c1ccc(NP(C)(=O)Oc2ccc(OC)cc2)cc1", "note": "(stereo unspecified)", "inhibition": "inactive: -5.33%"}
{"smiles": "CCOP(C)(=S)SCC(=O)NC(C)C(=O)O", "note": "(stereo unspecified)", "inhibition": "inactive: 0.3%"}
{"smiles": "CP(=O)(Nc1ccccn1)Oc1ccc(Cl)cc1", "note": "(stereo unspecified)", "inhibition": "inactive: 6.72%"}
{"smiles": "COP1(=S)c2c(C)nn(CCC#N)c2N=C(c2ccc(F)cc2)N1C", "note": "(stereo unspecified)", "inhibition": "inactive: -3.14%"}
{"smiles": "Cc1cccc(C)c1OP(C)(=O)Nc1ccc(SC(F)(F)F)cc1", "note": "(stereo unspecified)", "inhibition": "inactive: 19.3%"}
{"smiles": "CP(=O)(Oc1ccccc1)OC(c1ccccc1)C(F)(F)F", "note": "(stereo unspecified)", "inhibition": "inactive: 3.8%"}
{"smiles": "CP(=O)(NC(=O)Nc1ccccc1)Oc1ccccc1", "note": "(stereo unspecified)", "inhibition": "inactive: 2.95%"}
{"smiles": "O=C(COc1ccccc1)OC1CN2CCC1CC2", "note": "(stereo unspecified)", "inhibition": "inactive: -15.2%"}
{"smiles": "Cc1cc(C)cc(OP(C)(=O)Nc2ccc(SC(F)(F)F)cc2)c1", "note": "(stereo unspecified)", "inhibition": "inactive: 0.99%"}
{"smiles": "CP(=S)(Nn1cnnc1)Oc1ccccc1", "note": "(stereo unspecified)", "inhibition": "inactive: -4.31%"}
{"smiles": "CP(=O)(Nc1ccccc1Br)Oc1ccccc1", "note": "(stereo unspecified)", "inhibition": "inactive: 10.5%"}
{"smiles": "Cc1cc(SC(NC=O)C(Cl)(Cl)Cl)ncn1", "note": "(stereo unspecified)", "inhibition": "inactive: -25.1%"}
{"smiles": "O=P(Nc1ccccn1)(c1cccc2ccccc12)c1cccc2ccccc12", "inhibition": "inactive: 16.6%"}
{"smiles": "COc1ccccc1OP(C)(=O)Nc1ccccc1", "note": "(stereo unspecified)", "inhibition": "inactive: -2.74%"}
{"smiles": "Cc1cc(SC(NC(=O)c2ccccc2)C(Cl)(Cl)Cl)nc(C(C)C)n1", "note": "(stereo unspecified)", "inhibition": "inactive: -6.07%"}
{"smiles": "COc1ccccc1OP(C)(=O)Nc1ccc(C)cc1", "note": "(stereo unspecified)", "inhibition": "inactive: 7.8%"}
{"smiles": "Cc1ccc(NP(C)(=O)Oc2ccccc2)c(C)c1", "note": "(stereo unspecified)", "inhibition": "inactive: 2.75%"}
{"smiles": "CCOC(=O)c1ccc(NP(C)(=O)Oc2ccccc2)cc1", "note": "(stereo unspecified)", "inhibition": "inactive: -7.17%"}
{"smiles": "ClCCSc1nnc(-c2cccnc2)o1", "inhibition": "inactive: 2.04%"}
{"smiles": "Cc1cc(C)cc(OP(C)(N)=O)c1", "note": "(stereo unspecified)", "inhibition": "inactive: -3.99%"}
{"smiles": "CC(C)NC(=O)NP(=O)(Oc1ccccc1)Oc1ccccc1", "inhibition": "inactive: -15%"}
{"smiles": "COc1ccccc1OP(C)(=O)Nc1cc(Cl)ccc1C", "note": "(stereo unspecified)", "inhibition": "inactive: 2.1%"}
{"smiles": "CCN(CC)C(=S)SC(NC=O)C(Cl)(Cl)Cl", "note": "(stereo unspecified)", "inhibition": "inactive: 23.4%"}
{"smiles": "COc1ccc(OP(C)(=O)Nc2cccc(F)c2)cc1", "note": "(stereo unspecified)", "inhibition": "inactive: -0.89%"}
{"smiles": "O=[N+]([O-])c1cc([N+](=O)[O-])c(-c2ccn[nH]2)s1", "inhibition": "inactive: 31.7%"}
{"smiles": "O=[N+]([O-])c1ccc2c(c1)C=Nc1ccccc1O2", "inhibition": "inactive: 54.2%"}
{"smiles": "Cc1ccc2nc3c(c(C)c2c1)CC(C(Cl)Cl)S3", "note": "(stereo unspecified)", "inhibition": "inactive: 15.9%"}
{"smiles": "CC(C)(C)c1ccc(OP(C)(=O)Nc2ccc(SC(F)(F)F)cc2)cc1", "note": "(stereo unspecified)", "inhibition": "active: 74.9%"}
{"smiles": "Cc1cccc(C)c1OP(C)(N)=O", "note": "(stereo unspecified)", "inhibition": "inactive: -16.7%"}
{"smiles": "COc1ccc(N/C(=N/P(=O)(N2CCOCC2)N2CCOCC2)N2CCOCC2)cc1", "inhibition": "inactive: -2.59%"}
{"smiles": "O=C(OC1CN2CCC1CC2)C12CC3CC(CC(C3)C1)C2", "note": "(stereo unspecified)", "inhibition": "inactive: -4.16%"}
{"smiles": "Cc1cc(=O)[nH]c(N[N+](=O)[O-])n1", "inhibition": "inactive: -6.69%"}
{"smiles": "CCN(CC)CCCOC(=O)C(O)(c1ccccc1)c1ccccc1", "inhibition": "inactive: -16.2%"}
{"smiles": "Cc1c2c(nc3ccccc13)SC(C(Cl)Cl)C2", "note": "(stereo unspecified)", "inhibition": "inactive: 11.8%"}
{"smiles": "COc1ccc2nc(NP(=O)(c3ccccc3)c3ccccc3)sc2c1", "inhibition": "inactive: -19%"}
